Source: patent US20170049739A1, “PROSTACYCLIN COMPOUNDS, COMPOSITIONS AND METHODS OF USE THEREOF” (INSMED INCORPORATED, priority 2013, published 2017)

Columns and labels:
[1] = rat, in vivo, 6 ug/kg
Protocol: Body weights were recorded daily and organ weights (lungs, heart, liver) were measured 24 hr, after the last drug dose.

[2] = Treprostinil alkyl ester conversion to treprostinil in rat lung tissue homogenate; format: in vitro ADME; settings: 37° C., 200 nM, 10 mg/mL of protein, 4 hours
Protocol: (§1) Treprostinil alkyl ester conversion to treprostinil was also measured in the presence of rat, dog and monkey lung tissue homogenate at 37° C. Mere, data were calculated based on fit of exponential increase to the maximum (experiments performed in duplicate). The results of this study are provided below in Table 2A and FIG. 37. […] Both FIG. 37 experiments (left and right graphs) were performed in duplicate and the lines represent nonlinear exponential regression assuming 1 phase decay.

[3] = Treprostinil alkyl ester conversion to treprostinil in monkey lung tissue homogenate; format: in vitro ADME; settings: 37° C., 200 nM, 10 mg/mL of protein, 4 hours
Protocol: as §1

Row | Rate of treprostinil alkyl ester conversion [2] | Rate of treprostinil alkyl ester conversion [3] | Substance | increase in plasma AUC by day 14 [1]
1 | – | – | hexadecyl-treprostinil [C16-TR] | 3-4 fold
2 | 7.3 nmOL/h * g of protein | 4.6 nmOL/h * g of protein | treprostinil decyl ester [C10-TR] | –
